# Assay: Thermogravimetric analysis (TGA), decomposition temperature
# Format: physicochemical
substance,measurement,value
Ethambutol-(HCl)2—(ZnCl2)2,ΔTdec (increase in decomposition temperature relative to HCl starting material),−33.6 °C
